Laboratory results taken from patent US20010049374A1 (priority 1997, published 2001).
Like-named read-outs stand apart in the source and are kept apart here.

Biological target: T1, urokinase enzyme Abbokinase (Homo sapiens, UniProt P00749)
T1 construct: purchased Abbott Laboratories, Abbott Park, Ill
Assay: Determination of urokinase inhibition (Abbokinase, chromogenic substrate S-2444)
Assay type: biochemical

[1] = Inhibitory potency against urokinase, substrate S-2444 at 200 μM, enzyme 2-3 nM, pH 7.4, 405 nm, read-out: IC50

Molecule | IC50 (IC50) [nM] | IC50 [1] [nM] | also measured
N=C(N)c1ccc2cc(C3CC3c3ccccc3)ccc2c1 (centres unmarked) [Example 97, 6-(2-phenyl-1-cyclopropyl)-2-naphthalenecarboximidamide] | 1310 |  | 
[H]/N=C(/N)c1ccc2cc(C=Cc3ccccc3)ccc2c1 [Example 41, (E)-6-[2-(Phenyl)ethenyl]-2-naphthalenecarboximidamide] |  | 2380 | 
N=C(N)c1ccc2cc(C#Cc3ccc4c(c3)CCNC4)ccc2c1 [Example 127, 6-[(1,2,3,4-tetrahydro-6-isoquinolinyl)ethynyl]-2-naphthalenecarboximidamide] | 85 |  | 
COc1ccc2ccc(C(=N)N)cc2c1Nc1ccccc1 [Example 68, 7-Methoxy-8-(N-2-phenylamino)-2-naphthalenecarboximidamide] |  | 1740 | 
[H]/N=C(/N)c1ccc2cc(C=Cc3ccc4c(c3)CCNC4)ccc2c1 [Example 112, (E)-6-[2-(1,2,3,4-tetrahydro-6-isoquinolinyl)ethenyl]-2-naphthalenecarboximidamide] | 450 |  | 
(±)6-(3-Phenyloxiranyl)-2-naphthalenecarboximidamide [Example 44] |  |  | IC50 (pH 7.4, read-out: IC50): 350 nM
COc1ccc2ccc(C(=N)N)cc2c1OCC(N)=O [Example 4] |  | 500 | 
COc1ccc2ccc(C(=N)N)cc2c1-c1cnn(S(C)(=O)=O)c1 [Example 87, 7-Methoxy-8-[1-(methylsulfonyl)-1H-4-pyrazolyl]-2-naphthalenecarboximidamide] | 630 |  | 
